Molecular target: SARS-CoV-2 M^pro (Severe acute respiratory syndrome coronavirus 2, UniProt P0DTD1)
Format: biochemical
Conditions: 10 µM

**Q.** Which “inhibition rate of SARS-CoV-2 M^pro activity” value does the source give for O=C[C@H](C[C@@H]1CCNC1=O)NC(=O)[C@H](CC1CCCCC1)NC(=O)c1cc2ccccc2[nH]1 [M^pro 11a, reference compound] here?
**A.** > 98%

Source: article PMC9502466, “Identification of SARS-CoV-2 Main Protease Inhibitors from a Library of Minor Cannabinoids by Biochemical Inhibition Assay and Surface Plasmon Resonance Characterized Binding Affinity” (Molecules, 2022)
